BindingDB's records for doi:10.1021/jm00049a020 (Pharmacia-Farmitalia Carlo Erba, 1994)

Target: T1, Neutrophil elastase (Homo sapiens, UniProt P08246)
T1 sequence (P08246 whole entry): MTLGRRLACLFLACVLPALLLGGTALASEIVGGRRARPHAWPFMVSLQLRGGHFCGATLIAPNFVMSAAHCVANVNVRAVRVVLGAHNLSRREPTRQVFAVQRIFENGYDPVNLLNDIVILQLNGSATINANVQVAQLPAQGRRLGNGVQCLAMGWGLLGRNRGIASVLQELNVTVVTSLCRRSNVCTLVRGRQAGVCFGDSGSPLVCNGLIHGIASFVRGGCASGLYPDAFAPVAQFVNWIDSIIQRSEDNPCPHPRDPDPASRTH
Assay: Tested for the rate constant against Human Leukocyte Elastase (HLE) inactivation
Settings: read-out: kon (M-1-s-1)
In short: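 HLE from human sputum, active-site titrated with MeO-Suc-Ala-Ala-Pro-Val-CH2Cl; 1–3 nM active enzyme. […] Substrate and inhibitor concentrations varied to derive kon and Ki(ss).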

kon [M⁻¹ s⁻¹]	SMILES
19000	CO[C@H]1C(=O)N2C(C(=O)C(C)(C)C)=C(CSc3nnnn3C)CS(=O)(=O)[C@H]12 [(6R,7S)-2-(2,2-Dimethyl-propionyl)-7-methoxy-3-(1-methyl-1H-tetrazol-5-ylsulfanylmethyl)-5,5-dioxo-5lambda*6*-thia-1-aza-bicyclo[4.2.0]oct-2-en-8-one]
18000	CO[C@H]1C(=O)N2C(C(=O)c3ccccc3)=C(CSc3nnnn3C)CS(=O)(=O)[C@H]12 [(6R,7S)-2-Benzoyl-7-methoxy-3-(1-methyl-1H-tetrazol-5-ylsulfanylmethyl)-5,5-dioxo-5lambda*6*-thia-1-aza-bicyclo[4.2.0]oct-2-en-8-one]
